The values that follow come from ChEMBL document CHEMBL1138351, “Small, potent, and selective diaryl phosphonate inhibitors for urokinase-type plasminogen activator with in vivo antimetastatic properties” (J Med Chem, 2007).

Sequences of proteins named here, by UniProt entry; tags and fusion partners are left off.
UniProt P00742, whole entry: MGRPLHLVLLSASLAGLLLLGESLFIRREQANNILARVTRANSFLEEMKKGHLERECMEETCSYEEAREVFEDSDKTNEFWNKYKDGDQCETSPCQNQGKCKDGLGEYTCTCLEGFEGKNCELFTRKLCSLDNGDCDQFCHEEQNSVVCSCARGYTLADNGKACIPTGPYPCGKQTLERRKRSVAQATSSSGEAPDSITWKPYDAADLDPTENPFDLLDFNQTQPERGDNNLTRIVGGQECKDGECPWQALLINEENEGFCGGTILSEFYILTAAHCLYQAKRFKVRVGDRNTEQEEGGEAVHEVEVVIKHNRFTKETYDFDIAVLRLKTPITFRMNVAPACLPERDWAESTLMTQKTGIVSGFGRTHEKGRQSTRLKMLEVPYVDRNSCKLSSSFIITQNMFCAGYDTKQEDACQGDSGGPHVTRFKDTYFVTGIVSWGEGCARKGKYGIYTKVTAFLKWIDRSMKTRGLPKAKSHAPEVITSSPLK
UniProt P00750, whole entry, looked up: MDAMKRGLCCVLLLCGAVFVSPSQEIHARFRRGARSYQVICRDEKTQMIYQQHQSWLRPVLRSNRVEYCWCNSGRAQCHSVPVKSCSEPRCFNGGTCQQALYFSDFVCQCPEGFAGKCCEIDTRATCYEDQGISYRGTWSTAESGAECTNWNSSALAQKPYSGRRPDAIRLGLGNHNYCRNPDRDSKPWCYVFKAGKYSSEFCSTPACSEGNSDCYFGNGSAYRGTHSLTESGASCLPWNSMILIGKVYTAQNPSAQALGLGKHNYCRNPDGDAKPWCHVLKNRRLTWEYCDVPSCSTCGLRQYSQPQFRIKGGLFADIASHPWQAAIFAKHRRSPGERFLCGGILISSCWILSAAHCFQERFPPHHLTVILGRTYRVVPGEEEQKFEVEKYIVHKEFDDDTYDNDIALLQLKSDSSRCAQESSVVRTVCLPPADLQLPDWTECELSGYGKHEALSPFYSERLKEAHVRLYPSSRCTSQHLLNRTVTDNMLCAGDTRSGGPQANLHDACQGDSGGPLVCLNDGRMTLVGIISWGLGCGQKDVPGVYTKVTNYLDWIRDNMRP
UniProt P00747, whole entry: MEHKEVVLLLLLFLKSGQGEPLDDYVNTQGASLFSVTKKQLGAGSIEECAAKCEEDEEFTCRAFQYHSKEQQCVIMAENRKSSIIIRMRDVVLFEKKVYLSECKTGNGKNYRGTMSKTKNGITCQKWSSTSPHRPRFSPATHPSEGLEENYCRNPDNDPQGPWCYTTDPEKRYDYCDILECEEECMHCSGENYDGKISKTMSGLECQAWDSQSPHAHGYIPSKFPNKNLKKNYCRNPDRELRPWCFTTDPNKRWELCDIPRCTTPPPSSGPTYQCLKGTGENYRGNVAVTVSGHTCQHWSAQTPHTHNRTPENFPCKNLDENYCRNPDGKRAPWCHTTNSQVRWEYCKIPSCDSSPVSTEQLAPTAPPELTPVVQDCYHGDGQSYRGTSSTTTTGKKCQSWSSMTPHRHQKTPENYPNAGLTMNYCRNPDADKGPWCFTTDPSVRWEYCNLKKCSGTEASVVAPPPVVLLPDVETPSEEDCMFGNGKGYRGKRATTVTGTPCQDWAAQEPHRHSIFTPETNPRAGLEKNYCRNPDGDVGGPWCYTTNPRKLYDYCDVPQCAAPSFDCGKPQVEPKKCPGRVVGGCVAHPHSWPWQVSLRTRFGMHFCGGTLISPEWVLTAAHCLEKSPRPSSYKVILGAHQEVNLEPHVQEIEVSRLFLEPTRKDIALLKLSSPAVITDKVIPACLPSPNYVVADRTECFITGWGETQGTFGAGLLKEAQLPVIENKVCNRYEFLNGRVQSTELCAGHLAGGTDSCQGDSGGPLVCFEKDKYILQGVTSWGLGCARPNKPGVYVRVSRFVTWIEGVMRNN

One experiment concerns the target Coagulation factor X (Homo sapiens, UniProt P00742). Put plainly: Inhibition of factor 10a at 250 uM.
Experiment [1] has as its target Tissue-type plasminogen activator (Homo sapiens, UniProt P00750). Put plainly: Inhibition of human recombinant tPA at 250 uM.
In another experiment the target is Plasminogen (Homo sapiens, UniProt P00747). Put plainly: Inhibition of human plasmin at 250 uM.
The next experiment deals with Prothrombin (Homo sapiens, UniProt P00734). Put plainly: Inhibition of human thrombin at 250 uM. The method in brief:
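Human plasma thrombin was assayed at 37 °C in Tris pH 8.3. […] Initial rate was read at 405 nm, in duplicate. IC50 was obtained from a four-parameter logistic fit.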

In experiment [2] the target is Urokinase-type plasminogen activator (Homo sapiens, UniProt P00749).

The structures appear in SMILES notation. pIC50: −log10 of the molar value.

By inhibition is commonly meant the drop in the measured response relative to a control, in per cent. On to `N=C(N)Nc1ccc(CC(N)P(=O)(Oc2ccccc2)Oc2ccccc2)cc1` (stereo not drawn), for which the inhibition on Coagulation factor X came to 11%; in experiment [1], 32%; against Plasminogen, 31%; at Prothrombin, 41%.
For `COC(=O)NC(Cc1ccc(NC(=N)N)cc1)P(=O)(Oc1ccccc1)Oc1ccccc1` (stereo not drawn), the inhibition against Coagulation factor X came out at 57%.
Regarding `CCOC(=O)NC(Cc1ccc(NC(=N)N)cc1)P(=O)(Oc1ccccc1)Oc1ccccc1` (stereo not drawn), at Coagulation factor X, the inhibition came to 62%.
`CC(=O)NC(Cc1ccc(NC(=N)N)cc1)P(=O)(Oc1ccccc1)Oc1ccccc1` (stereo not drawn) yielded an inhibition on Coagulation factor X of 37%.
By pIC50 is commonly meant −log10 of the IC50, conventionally taken in molar units. A higher pIC50 goes with a small IC50. In the case of `COC(=O)NC(Cc1ccc(NC(=N)N)cc1)P(=O)(Oc1ccc(NC(C)=O)cc1)Oc1ccc(NC(C)=O)cc1` (stereo not drawn), the pIC50 in experiment [2] is 8.47.
